The results in this text go back to patent EP1019524B1 (ARCH DEVELOPMENT CORPORATION, dated 2004).

The assay deals with T1, purified PP1α released from the GST-PP1α fusion protein by thrombin (human).
T1 construct: Apparent Mr 38,000 on the gel; also called protein phosphatase 1α; phosphatase 1α
Briefly: GST pulldown of purified PP1α, immunoblot with anti-PP1α antibody. (In general: A western blot detects proteins with antibodies after separation by electrophoresis.)

B1: GST alone (on beads) (other, UniProt P08515 1-218, looked up)
chain: MSPILGYWKIKGLVQPTRLLLEYLEEKYEEHLYERDEGDKWRNKKFELGLEFPNLPYYIDGDVKLTQSMAIIRYIADKHNMLGGCPKERAEISMLEGAVLDIRYGVSRIAYSKDFETLKVDFLSKLPEMLKMFEDRLCHKTYLNGDHVTHPDFMLYDALDVVLYMDPMCLDAFPKLVCFKKRIEAIPQIDKYLKSSKYIAWPLQGWQATFGGGDHPPK
notes: Negative control of both pulldown experiments; also called GST-beads
Turning to B1, the binding result is listed as “no binding”.
